# Laboratory results: US20250144104A1, “DISCOVERY OF A NEW INHIBITOR FOR THE YTH DOMAIN-CONTAINING M6A RNA READERS” (The Trustees of Boston College, priority 2023, published 2025)
# Chains of the proteins cited; added tags and fusions are not shown. Residues count along the entry.
# UniProt Q9H6S0, 1285-1424: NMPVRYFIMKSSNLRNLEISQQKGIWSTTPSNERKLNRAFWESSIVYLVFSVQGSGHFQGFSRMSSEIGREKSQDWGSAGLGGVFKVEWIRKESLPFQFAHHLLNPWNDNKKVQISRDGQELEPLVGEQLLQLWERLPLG
# Key:
# YTH^YTHDC1 = biological target: T1, YTH^YTHDC1 (Homo sapiens, UniProt Q96MU7); assay: FP competition assay, YTH domain of YTHDC1 and FAM-m6A-RNA; type: binding; settings: 25 nM FAM-m^6A-RNA; read-out: IC50, FP competition assay against YTH^YTHDC1
# T1 construct: YTHDC1 (amino acids 345-509); His-tag (N); made in house; host or cells: E. coli BL21(DE3)
# Source text: The m^6A nucleoside was ordered from AmBeed. […] 6-(methylamino) purine was purchased from Fisher Scientific.
# [1] = tested on: YTH^YTHDF1, YTH^YTHDF2, YTH^YTHDF3, YTH^YTHDC1, YTH^YTHDC2; assay: Thermal shift assay, five YTH domain proteins; type: binding, human; settings: 6 μM compound, 4 μM protein, five YTH domains
# Experimental: For the positive control, we incubated […] or 16 μM m^6A-RNA with 4 μM YTH^YTHDF1 in the binding buffer with added RNase inhibitor and 5×SYPRO orange dye (Invitrogen) at room temperature for 15 minutes. After incubation, the thermal shift assay was performed in the QuantStudio™ 3 Real-Time PCR System (Thermo Fisher). Each sample was heated from 25° C. to 75° C. ramping by 0.2° C./second; meanwhile, fluorescence intensities were recorded every 0.3° C. with the excitation and emission wavelengths at 470 nm and 570 nm, respectively. Data were first normalized by setting the highest and lowest fluorescence intensities in each melting run to 100% and 0%, respectively. […]
# To assess whether N-7 interacted with the YTH domain proteins, we used the thermal shift assay to examine if there were any stabilization effects of the YTH domains by adding N-7. […] For each YTH domain protein, three biological replicates were performed to quantify the errors of the assay. The thermal stabilizations of the YTH domain proteins were analyzed by the change of the Tm (ΔTm) as the difference between the Tm measured on the protein with N-7 or DMSO, and the Tm of protein-only control (FIG. 4B and FIGS. 18A-18E). The interactions between D-6 and YTH domain proteins were assessed using the same method as N-7 (FIGS. 19A-19F).
# YTH^YTHDC2 = YTH^YTHDC2 (Homo sapiens, UniProt Q9H6S0); settings: read-out: IC50, FP competition assay against YTH^YTHDC2; 25 nM FAM-m^6A-RNA
structure (smiles),measurement,setting,value
O=C1CC2(CCN(c3ncnc4c3ncn4C3CC(CO)(CO)C3)C2)CN1 (stereo not drawn) [N-7],IC50,YTH^YTHDC1,48 ± 11 µM
same,increase of melting temperatures of the YTH domain proteins relative to the DMSO control,[1],0.4-0.8 °C
same,IC50,YTH^YTHDC2,30 ± 7 µM
